The subject of one test is arterial blood pressure. Put plainly: Anesthetized rabbit experiments: arterial blood pressure and heart rate after infusion. Further: key: Inactive: No decrease or decrease less than 5%; Active: Decrease between 5 and 40%; Very Active: Decrease greater than 40%. Format: in vivo, New Zealand white rabbits. The conditions noted are these: end of 10 min infusion at highest dose tested (150-200 μg×kg^-1×min^-1), decrease as percentage of basal value. As to the method: In the anesthetized rabbits, the decrease of arterial blood pressure and the effect on the heart rate after infusion of the test compounds was determined.
New Zealand white rabbits (2.5-3 kg) were anesthetized (30 mg×kg^-1 pentobarbitone, i.v., supplemental doses as needed). Tracheotomy was performed, and an intra-tracheal cannula was inserted. No artificial ventilation was applied and body temperature was maintained at 37°-38° C.
Left ventricular pressure (LVP) was measured (Millar Mikro-Tip catheter via the right carotid artery with transducer in the left ventricle). The LVP signal was differentiated electronically to obtain the rate of change of LVP (LV dP/dt). The heart rate (HR) was derived from the LVP pulse signal. The jugular vein was cannulated for infusion of the test compounds. Aortic blood pressure (SAP and DAP) was monitored (Gould-Statham pressure transducer) by inserting a polyethylene catheter filled with heparin (50 IU×ml^-1) through the femoral artery into the abdominal aorta. Heparin (150 IU×kg^-1, i.v.) was administered to prevent blood clotting.
After completion of surgical procedures, the rabbits were allowed to recover for 15 minutes before drug administration was started.
Drugs were infused at constant rate (0.5 ml×min^-1) for 10 minutes at various doses, resulting in a typical dose range of 2.0, 20.0 and 200 μg×kg^-1 ×min^-1 (2.5 kg rabbit). […]

The next test concerns contracted rat aorta. Put plainly: In vitro rat aorta assay: relaxation of aorta strips contracted with phenylephrine. In kind it is cell-based. Particulars: read-out: EC50 (mean): concentration at which residual contraction is 50% of maximum; rat aorta strips contracted with 10^-7 M phenylephrine. As to the method: In the rat aorta assay, the compounds according to the invention are--in contrast to e.g. nifedipine--able to effect an up to 100% relaxation of a contraction of the rat aorta induced by phenylephrine.
Strips of thoracial rat aortae (without aortic arch, helically cut; length 1-1.5 cm; width about 2 mm) were place in an organ bath [20 ml; Krebs Ringer medium bubbled with O2 /CO2 (95/5%) at 37° C.]. A resting tension of 0.5 g was applied and the preparations were equilibrated during 100 min (fresh buffer solution every 20 min). The strips were isotonically contracted with 10^-7 M phenylephrine.
Drug-induced relaxation was tested at increasing concentration (half log steps), till maximal or full relaxation (corresponding to basal precontraction value of organ length) had been reached.
Responses were calculated as change in organ length relatively to maximal displacement by contraction, EC50 values corresponding to the drug concentration at which residual contraction is 50% of maximum.

As for `O=C(O)C1CSC(c2cc([N+](=O)[O-])cc([N+](=O)[O-])c2OCCO[N+](=O)[O-])N1` (centres unmarked), the “Activity with regard to the lowering of blood pressure” value in the test on arterial blood pressure is recorded as “Active”. In the test with contracted rat aorta, the EC50 was 220 nM.

The record behind these values is patent US5385922A, “Thiazolidine derivatives” (Cedona Pharmaceuticals B.V., priority 1990, dated 1995).
